In ChEMBL document CHEMBL2331319, “Development of N-Hydroxycinnamamide-Based Histone Deacetylase Inhibitors with Indole-Containing Cap Group” (ACS Med Chem Lett, 2013) one finds IC50 data, which are given here for one molecule.

This assay has as its target Histone deacetylase. The assay is described as follows: Inhibition of HDAC in human HeLa cell nuclear extract using Boc-Lys(acetyl)-AMC as substrate preincubated with enzyme for 5 mins prior to substrate addition measured after 30 mins by fluorescence assay. Type of assay: protein assay.

Regarding `CCCC(CCC)C(=O)N[C@H](COc1ccc(/C=C/C(=O)NO)cc1OC)Cc1c[nH]c2ccccc12`, the IC50 (usually the concentration at which inhibition is half-maximal) was determined as 1.08 µM.
